Tests used:
Aromatase [1] = target: T1, Aromatase (Homo sapiens, UniProt P11511); assay: Inhibition of aromatase by fluorimetric method
Aromatase [2] = target: T1, Aromatase; assay: Inhibition of aromatase by fluorimetric high throughput method
Aromatase [3] = target: T1, Aromatase; assay: Inhibition of aromatase by radiometric method

Protein sequences, listed by entry. Tags and fused reporters are not part of them. Lines headed by an entry give the natural chain unless they say otherwise; changes in a name come on top.
UniProt P11511: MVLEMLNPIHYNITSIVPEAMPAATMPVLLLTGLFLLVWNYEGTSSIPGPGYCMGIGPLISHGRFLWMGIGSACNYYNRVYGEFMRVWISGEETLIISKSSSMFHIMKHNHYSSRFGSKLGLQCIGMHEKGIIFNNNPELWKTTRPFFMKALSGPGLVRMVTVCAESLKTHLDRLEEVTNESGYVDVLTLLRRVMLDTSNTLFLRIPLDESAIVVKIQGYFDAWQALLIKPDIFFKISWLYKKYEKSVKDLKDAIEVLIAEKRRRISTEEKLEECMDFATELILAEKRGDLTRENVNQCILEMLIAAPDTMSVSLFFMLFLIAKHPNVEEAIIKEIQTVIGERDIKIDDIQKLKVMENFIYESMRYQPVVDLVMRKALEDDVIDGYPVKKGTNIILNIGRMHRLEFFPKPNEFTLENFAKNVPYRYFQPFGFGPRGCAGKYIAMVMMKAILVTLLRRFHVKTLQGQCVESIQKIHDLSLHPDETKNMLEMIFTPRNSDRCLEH

IC50 (Aromatase [1]): 40.9 µM
IC50 (Aromatase [2]): 62 µM
IC50 (Aromatase [3]): 600 nM
SMILES: CC(C)=CCc1cc(C2CC(=O)c3ccc(O)cc3O2)ccc1O (racemic) [(RAC)-ABYSSINONE II]

— ChEMBL document CHEMBL1157393, “Selective inhibition of aromatase by a dihydroisocoumarin from Xyris pterygoblephara” (J Nat Prod, 2008)
